Assay results: PubChem BioAssay AID602310 (National Center for Advancing Translational Sciences (NCATS), 2012)
The list shows a part of the results, in another mix than the full data. Calls of active or inactive are those of the source. Calls come from the whole dose curve; as a rule, active = well fitted curve in the direction sought with a large enough effect; inconclusive = small, poorly fitted or top-dose-only effect; inactive = flat fitted curve, though single readings scatter.

Amino acid sequences for entries named in this document (tags omitted). A change or cut given only in a name is not applied to a line headed by its entry.
UniProt Q9HC16: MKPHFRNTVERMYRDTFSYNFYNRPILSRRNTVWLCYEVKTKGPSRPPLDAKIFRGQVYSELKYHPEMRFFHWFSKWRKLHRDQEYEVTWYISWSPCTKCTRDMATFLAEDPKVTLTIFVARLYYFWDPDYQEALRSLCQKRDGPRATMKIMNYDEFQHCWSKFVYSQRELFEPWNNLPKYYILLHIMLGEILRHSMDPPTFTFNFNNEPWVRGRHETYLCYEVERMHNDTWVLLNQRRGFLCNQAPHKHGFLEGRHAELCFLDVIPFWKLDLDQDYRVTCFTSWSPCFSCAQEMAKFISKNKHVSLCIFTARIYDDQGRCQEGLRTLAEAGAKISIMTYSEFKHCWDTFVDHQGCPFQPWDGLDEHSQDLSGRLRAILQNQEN

biological target: DNA dC->dU-editing enzyme APOBEC-3G (Homo sapiens) (UniProt Q9HC16); experiment: qHTS for Inhibitors of Vif-A3G Interactions: qHTS; details: HeLa A3G-eYFP + Vif (tagged APOBEC3G with the HIV-1 protein that degrades it), YFP fluorescence, overnight; at 46.1 µM (top of the series);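 note: hits raise eYFP signal because A3G escapes Vif-driven loss; nearly all actives have a fitted effect of over 60% in size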
Excerpt: The recent discovery and characterization of host restriction factors, which provide a potent defense to invading retroviruses, has provided new targets for antiviral drug development. APOBEC3G (A3G) and APOBEC3F (A3F) are potent cytidine deaminases that block HIV-1 replication; HIV-1 expresses the Vif protein, which counteracts A3G and A3F by binding to them and inducing their proteasomal degradation. The Vif-A3G and Vif-A3F interactions provide two potential targets for development of small molecules which can interfere with the ability of Vif to degrade A3G or A3F. […] To identify inhibitors that can interfere with Vif mediated degradation of A3G and A3F, we have developed Hela cell lines that stably express A3G or A3F tagged with eYFP at the C-terminal end (A3G-eYFP or A3F-eYFP, respectively) and Vif. In the absence of an inhibitor, Vif induces degradation of A3G-eYFP and A3F-eYFP, and the cells are not fluorescent. In the presence of an inhibitor, it is expected that Vif will be unable to degrade A3G-eYFP and/or A3F-eYFP, resulting in an increase in yellow fluorescence. In this assays Vif A3G was screened against the Molecular Library Small Molecule Repository (MLSMR). NIH Chemical Genomics Center [NCGC] NIH Molecular Libraries Probe Centers Network [MLPCN] MLPCN Grant: MH093245 Assay Submitter (PI): Vinay Pathak, National Cancer Institute
5 uL of 700 cells/well of A3G-YFP cells are dispensed into black, clear bottom plates. The plates are incubated overnight at 37 deg C. 23 nL of compounds are added by pintool. The plates are incubated overnight at 37 deg C and then read on the TTP Acumen (Ex 488/ Em 500-530).
% is set by controls: 0 for no effect and ±100 for the full control effect.

Row | SMILES | activity, negative = active
1 | COc1cc(C(=O)NCC2(N3CCOCC3)CCCCC2)cc(Cl)c1OC(C)C | inactive: 0.0083%
2 | O=[As](O)(O)c1cccnc1 | inactive: -5.59%
3 | CS(=O)(=O)c1ccc(Cl)c(NC(=O)COC(=O)C(O)(c2ccccc2)c2ccccc2)c1 | inactive: -0.0441%
4 | O=C(OC1CN2CCC1CC2)c1ccc(Cl)cc1 (centres undefined) | inactive: 1.63%
5 | O=[As](O)(c1cccc(O)c1)c1cccc(O)c1 | inactive: -0.473%
6 | Cc1cccc(OCC(=O)OC2CN3CCC2CC3)c1 (centres undefined) | inactive: -0.0757%
7 | CCCOP(=S)(Nc1nc(N)cc(=O)[nH]1)OCCC | inactive: -0.498%
8 | Nc1cccc2c([As](=O)(O)O)cccc12 | inactive: 0.248%
9 | COc1cc(C2NCCC3(OCCO3)C2(C)C)cc(OC)c1OC (centres undefined) | inactive: -0.333%
10 | CCOP(=O)(Nc1cccc2ccccc12)OCC | inactive: -1.16%
11 | CS(=O)(=O)c1cc([N+](=O)[O-])c2no[n+]([O-])c2c1 | inactive: -18.6%
12 | CCOP1(=S)c2c(C)nn(CCC#N)c2N=C(c2ccccc2F)N1C (centres undefined) | inactive: -13.3%
13 | O=P(Nc1nccs1)(Oc1ccccc1)Oc1ccccc1 | inactive: 0.947%
14 | O=C(O)COc1ccc([As](=O)(O)O)cc1[N+](=O)[O-] | inactive: 2.73%
15 | Nc1ccccc1[As](=O)(O)c1ccccc1 | inactive: -0.159%
16 | CN(C)C(=O)c1cc([N+](=O)[O-])cc2c1-c1c(cc([N+](=O)[O-])cc1[N+](=O)[O-])C2=O | inactive: -14.9%
17 | O=[N+]([O-])c1ccc2c(c1)nnn2O | inactive: 4.93%
18 | CN(C(=O)Cc1ccc(Cl)c(Cl)c1)[C@H]1CC[C@@]2(CCCO2)C[C@@H]1N1CCCC1 | inactive: -3.58%
19 | N#CCCN(C(=O)COC(=O)C(O)(c1ccccc1)c1ccccc1)c1ccc(F)cc1 | inactive: 0.0034%
20 | CCOP1(=S)c2c(C)nn(CCC#N)c2N=C(c2ccc(F)cc2)N1C (centres undefined) | inactive: 1.08%
21 | CN(C(=O)Cc1ccccc1)[C@@H]1CC[C@]2(CCCO2)C[C@H]1N1CCCC1 | inactive: -1.95%
22 | Cc1nn(-c2ccccc2)c2c1P(=O)(N1CCOCC1)N(C)C(c1ccccc1)=N2 (centres undefined) | inactive: 1.77%

Row | SMILES | activity, negative = active
23 | COc1cc([N+](=O)[O-])ccc1[N+](=O)[O-] | inactive: -10.8%
24 | Cc1ccc(C(=O)OC2CN3CCC2CC3)cc1 (centres undefined) | inactive: 0.326%
25 | CC1CCC(C(C)C)C(OP(=O)(Nc2ccccn2)c2ccccc2)C1 (centres undefined) | inactive: -8.07%
26 | O=C(/C=C/c1ccccc1)OC1CN2CCC1CC2 (centres undefined) | inactive: -0.172%
27 | CCCC1OP(=O)(Nc2ccccc2)OCC1CC (centres undefined) | inactive: 0.743%
28 | CN(C)C1(CNC(=O)c2ccc(S(C)(=O)=O)cc2)CCCCC1 | inactive: -0.595%
29 | O=P1(Nc2ncccn2)COc2ccccc2OC1 | inactive: 0.642%
30 | Cc1ccc(S(=O)(=O)N(CCCN)CCCc2c(C)nc(N)[nH]c2=O)cc1 | inactive: 1.78%
31 | NS(=O)(=O)c1cccc(NC(=O)COC(=O)C(O)(c2ccccc2)c2ccccc2)c1 | inactive: 0.671%
32 | O=P1(Nc2ccc(Br)cn2)COc2ccccc2OC1 | inactive: 0.697%
33 | O=[As](O)(c1cccs1)c1cccs1 | inactive: -5.18%
34 | Cc1ccc(OCC(=O)OC2CN3CCC2CC3)cc1 (centres undefined) | inactive: 0.236%
35 | Nc1cccc([As](=O)(O)c2ccccc2)c1 | inactive: -4.18%
36 | CN(CCCl)Cc1cc(Cl)c(NC2=NCCN2)c(Cl)c1 | inactive: -2.09%
37 | CCOP(=O)(Nc1ccc(C)cn1)OCC | inactive: -0.563%
38 | CCC1=CC2Cc3nc4ccc(Cl)cc4c(N)c3C(C1)C2 (centres undefined) | inactive: -1.81%
39 | O=P1(Nc2ccccn2)COc2ccccc2OC1 | inactive: -1.15%
40 | CCOP(=O)(NC(=NC(C)c1ccccc1)NC(C)c1ccccc1)OCC (centres undefined) | inactive: 1.69%
41 | Clc1n[nH]nc1-c1nn[nH][15n]1 | inactive: -0.74%
42 | O=P1(N(CCCl)CCCl)NCCC(C(F)(F)F)O1 (centres undefined) | inactive: 1.21%
43 | CC(C)(C)C(=O)NC(Sc1ncccn1)C(Cl)(Cl)Cl (centres undefined) | inactive: 1.56%
44 | COc1ccccc1CNC(=O)COC(=O)C(O)(c1ccccc1)c1ccccc1 | inactive: -0.905%

Row | SMILES | activity, negative = active
45 | CC1(CBr)Cn2c(nc3ccccc3c2=O)S1 (centres undefined) | inactive: -0.0351%
46 | CN(C(=O)Cc1ccc(Cl)c(Cl)c1)[C@@H]1CCCC[C@H]1N1CCCC1 | inactive: -0.884%
47 | CC(C)/C=N\N=C(\N)N[N+](=O)[O-] | inactive: -3.53%
48 | COP1(=S)c2c(C)nn(CCC#N)c2N=C(c2ccc(F)cc2)N1C (centres undefined) | inactive: -0.429%
49 | COC(=O)C1(C)COP(=O)(N2CCCC2)OC1 (centres undefined) | inactive: 3.51%
50 | O=C(COc1ccccc1)OC1CN2CCC1CC2 (centres undefined) | inactive: 0.286%
51 | O=C(Nc1ccncc1[N+](=O)[O-])c1ccc([N+](=O)[O-])cc1[N+](=O)[O-] | inactive: -15.1%
52 | O=C(O)C(=O)c1ccc(N(CCCl)CCCl)cc1 | inactive: 1.99%
53 | O=C(OC1CN2CCC1CC2)c1cccc([N+](=O)[O-])c1 (centres undefined) | inactive: -3.45%
54 | CSc1ccc(Nc2c([N+](=O)[O-])cc([N+](=O)[O-])cc2[N+](=O)[O-])cc1 | inactive: -1.26%
55 | CCOP(=O)(Nc1cccc2cccnc12)OCC | inactive: 2.15%
56 | CCC(C)N(CC(C)C)C(=S)SC(NC(C)=O)C(Cl)(Cl)Cl (centres undefined) | inactive: 1.55%
57 | CC1CCNP(=O)(N(CCCl)CCCl)O1 (centres undefined) | inactive: -0.406%
58 | O=C(O)C(O)c1ccc(N(CCCl)CCCl)cc1 (centres undefined) | inactive: 0.155%
59 | CCOC(=O)Nc1ccc([As](=O)(O)O)c(O)c1 | inactive: -0.0823%
60 | CCCCOc1ccc(C(=O)NCC2(N3CCCCC3)CCCCC2)cc1OC | inactive: -0.457%
61 | Cc1cc(SC(NC(=O)c2ccccc2)C(Cl)(Cl)Cl)nc(C(C)C)n1 (centres undefined) | inactive: -5.13%
62 | COP(=O)(OC)N1CC1c1ccccc1 (centres undefined) | inactive: -0.381%
63 | CCOC(=O)Nc1cccc([As](=O)(O)O)c1 | inactive: 3.95%
64 | O=[N+]([O-])c1ccc(Nc2ccc(Oc3ccc([N+](=O)[O-])cc3[N+](=O)[O-])cc2)c([N+](=O)[O-])c1 | inactive: 0.73%
